Source: patent US20020114734A1, “Microplate thermal shift assay apparatus for ligand development and multi-variable protein chemistry optimization” (priority 1996, published 2002)

Protein sequences, listed by entry. Tags and fused reporters are not part of them.
UniProt P05230, whole entry, species assumed: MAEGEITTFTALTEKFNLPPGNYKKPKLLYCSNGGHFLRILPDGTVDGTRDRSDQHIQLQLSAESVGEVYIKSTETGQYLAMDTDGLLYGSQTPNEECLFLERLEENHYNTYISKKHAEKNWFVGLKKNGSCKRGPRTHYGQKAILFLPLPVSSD

Biological target: T1, acidic fibroblast growth factor (aFGF) (Homo sapiens, UniProt P05230)
T1 construct: host or cells: E. coli
Experiment: Microplate thermal shift assay for ligands binding to aFGF, turbidity as signal
Text: The second therapeutic receptor tested in the microplate thermal shift assay was acidic fibroblast growth factor (aFGF), a growth factor that plays a key role in angiogenesis (Folkman, J. et al., J. Biol. Chem. 267:10931-10934 (1992)). A synthetic gene for this protein was purchased from R&D Systems (Minneapolis, Minn.), and was cloned and expressed in E. coli using methods similar to those described for basic fibroblast growth factor (bFGF) (Thompson, L. D. et al., Biochemistry 33:3831-3840 (1994); Pantoliano, M. W. et al., Biochemistry 33:10229-10248 (1994); Springer, B. A. et al., J. Biol. Chem. 269:26879-26884 (1994)). Recombinant aFGF was then purified by heparin-sepharose affinity chromatography as described (Thompson, L. D. et al., Biochemistry 33:3831-3840 (1994)). aFGF is also known to bind heparin/heparan, which is a cofactor for mitogenic activity. […] A microplate thermal assay of these compounds was set up in a way similar to that described above for human α-thrombin. […] The affinity constants covered a fairly broad range of binding affinities, with pentosan PSO4 showing the highest affinity.

Kd (equation (1), estimated ΔHu 60.0 kcal/mole, ΔCpu 0.95 kcal/mole-°K, read-out: Kd at Tm): > 50 µM
ΔTm (relative to aFGF alone (317.15 ° K)): 0.0 ° K
SMILES: N[C@@H](CCC(=O)O)C(=O)N[C@@H](CCC(=O)O)C(=O)N[C@@H](CCC(=O)O)C(=O)N[C@@H](CCC(=O)O)C(=O)N[C@@H](CCC(=O)O)C(=O)O [EEEEE]
